Test results from patent US20230372302A1 (priority 2019, published 2023).

Amino acid sequences for entries named in this document (tags omitted).
UniProt P25100, whole entry: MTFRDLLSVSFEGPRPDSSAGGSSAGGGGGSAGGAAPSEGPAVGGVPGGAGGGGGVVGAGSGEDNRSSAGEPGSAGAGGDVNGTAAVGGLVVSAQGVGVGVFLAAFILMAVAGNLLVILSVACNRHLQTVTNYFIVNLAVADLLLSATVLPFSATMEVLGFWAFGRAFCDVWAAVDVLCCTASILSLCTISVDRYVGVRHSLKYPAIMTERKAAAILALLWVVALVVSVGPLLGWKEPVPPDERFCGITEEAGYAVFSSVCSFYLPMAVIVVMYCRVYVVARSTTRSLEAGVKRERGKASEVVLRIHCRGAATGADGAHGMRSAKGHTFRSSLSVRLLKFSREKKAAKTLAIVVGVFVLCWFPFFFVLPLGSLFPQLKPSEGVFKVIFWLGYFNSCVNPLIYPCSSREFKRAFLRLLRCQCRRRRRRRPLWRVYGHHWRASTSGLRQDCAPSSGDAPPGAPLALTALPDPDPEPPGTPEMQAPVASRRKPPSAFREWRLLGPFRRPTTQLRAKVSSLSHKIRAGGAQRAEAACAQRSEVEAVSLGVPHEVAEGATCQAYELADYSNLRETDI

How the values were obtained:
[1] = molecular target: recombinant human alpha 1D adrenergic receptor (ADR1D) (Homo sapiens, UniProt P25100); assay: Radioligand binding, alpha 1D adrenergic receptor (Adr1D)
[2] = tested on: VC and laryngeal muscles/laryngospasm; conditions: rat model; cited from earlier work

Compound	BA at 1D greater than carfentanil [1] [×]	BA at 1D greater than fentanyl [1] [×]	greater affinity at the 1D compared to carfentanil and fentanyl, respectively [1]	dose at which naloxone has an effect on fentanyl VC/laryngospasm [2] [mg/kg]
NC[C@H](O)c1ccc(O)c(O)c1 [norepinephrine]	20	30	25-30 fold	
C=CCN1CC[C@]23c4c5ccc(O)c4O[C@H]2C(=O)CC[C@@]3(O)[C@H]1C5.Cl [naloxone, 17-Allyl-4,5α-epoxy-3,14-dihydroxymorphinan-6-one hydrochloride]				> 0.8
